{"sequences": {"note": "Sequences of proteins named here, by UniProt entry; tags and fusion partners are left off. A change or cut given only in a name is not applied to a line headed by its entry.", "UniProt P41145": "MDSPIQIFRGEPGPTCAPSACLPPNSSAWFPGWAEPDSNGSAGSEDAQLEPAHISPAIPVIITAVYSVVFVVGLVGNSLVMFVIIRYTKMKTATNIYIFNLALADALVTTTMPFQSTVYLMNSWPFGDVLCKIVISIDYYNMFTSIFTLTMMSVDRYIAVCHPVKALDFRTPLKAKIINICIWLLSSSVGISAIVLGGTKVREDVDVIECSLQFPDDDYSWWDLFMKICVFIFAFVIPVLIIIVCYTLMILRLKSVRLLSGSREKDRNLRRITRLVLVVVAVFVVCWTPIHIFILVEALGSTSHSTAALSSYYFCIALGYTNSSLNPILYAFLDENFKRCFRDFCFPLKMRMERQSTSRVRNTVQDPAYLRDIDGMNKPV", "UniProt P33534": "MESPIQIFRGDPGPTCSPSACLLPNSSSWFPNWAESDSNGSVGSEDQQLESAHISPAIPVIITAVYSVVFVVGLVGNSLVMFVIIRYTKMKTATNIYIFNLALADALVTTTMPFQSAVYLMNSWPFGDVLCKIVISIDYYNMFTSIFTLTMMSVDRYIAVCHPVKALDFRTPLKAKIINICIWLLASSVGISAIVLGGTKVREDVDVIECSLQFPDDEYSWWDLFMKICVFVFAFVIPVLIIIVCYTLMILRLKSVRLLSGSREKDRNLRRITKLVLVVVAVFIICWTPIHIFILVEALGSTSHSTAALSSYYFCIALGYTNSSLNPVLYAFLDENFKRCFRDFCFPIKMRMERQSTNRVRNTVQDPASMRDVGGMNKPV", "UniProt P32300, whole entry, looked up": "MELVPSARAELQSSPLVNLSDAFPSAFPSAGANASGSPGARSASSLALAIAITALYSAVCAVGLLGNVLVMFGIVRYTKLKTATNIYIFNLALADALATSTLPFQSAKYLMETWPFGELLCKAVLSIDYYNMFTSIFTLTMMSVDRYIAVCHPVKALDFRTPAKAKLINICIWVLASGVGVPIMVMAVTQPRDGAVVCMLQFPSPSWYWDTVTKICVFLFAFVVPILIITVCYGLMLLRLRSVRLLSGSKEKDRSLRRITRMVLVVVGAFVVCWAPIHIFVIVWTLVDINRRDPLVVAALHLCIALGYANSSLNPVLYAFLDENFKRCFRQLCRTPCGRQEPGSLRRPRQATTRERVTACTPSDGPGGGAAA", "UniProt P42866, whole entry, looked up": "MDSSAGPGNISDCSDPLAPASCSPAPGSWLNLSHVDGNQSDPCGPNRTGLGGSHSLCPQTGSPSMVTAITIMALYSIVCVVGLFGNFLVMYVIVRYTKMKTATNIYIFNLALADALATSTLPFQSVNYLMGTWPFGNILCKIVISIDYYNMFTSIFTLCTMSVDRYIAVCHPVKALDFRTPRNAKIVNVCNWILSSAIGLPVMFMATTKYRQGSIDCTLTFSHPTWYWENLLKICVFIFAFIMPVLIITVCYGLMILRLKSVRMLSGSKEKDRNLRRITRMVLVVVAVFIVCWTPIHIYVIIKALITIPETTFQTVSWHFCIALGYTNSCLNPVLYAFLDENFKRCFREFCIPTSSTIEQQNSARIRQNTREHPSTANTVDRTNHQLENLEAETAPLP"}, "source": "paper PMC7060366", "key": {"[1]": {"biological_target": "human κOP (Homo sapiens, UniProt P41145)", "experiment": "PathHunter β‐arrestin 2 recruitment in U2OS cells"}, "[2]": {"biological_target": "mouse κOP (Mus musculus, UniProt P33534)", "experiment": "cAMP inhibition (GloSensor, forskolin-stimulated) in HEK 293 cells", "conditions": "for cAMP pIC50: κOR section, HEK293 expressing mouse κOP, ±SEM"}, "[3]": {"system": "C57BL/6 mice", "experiment": "Brief conditioned place preference", "conditions": "male mice"}, "[4]": {"system": "C57BL/6 mice", "experiment": "Extended conditioned place preference", "conditions": "male mice"}, "[5]": {"system": "C57BL/6 wild‐type mice", "experiment": "Acute thermal antinociception (tail‐flick assay)"}, "[6]": {"biological_target": "mouse δOP (Mus musculus, UniProt P32300)", "experiment": "cAMP inhibition (GloSensor, forskolin-stimulated) in HEK 293 cells", "conditions": "for LogR (tau/Ka) cAMP: δOP, operational model; for cAMP pIC50: δOR section, HEK293 expressing mouse δOP, ±SEM"}, "[7]": {"system": "C57BL/6 mice", "experiment": "Two‐bottle choice model of moderate 10% alcohol consumption"}, "[8]": {"system": "C57BL/6 mice", "experiment": "General locomotor activity assessment"}, "[9]": {"biological_target": "human δOP (Homo sapiens, UniProt P41143)", "experiment": "PathHunter β‐arrestin 2 recruitment in CHO‐K1 cells", "conditions": "for β‐arrestin 2 α (efficacy): normalized to leu‐enkephalin, ±SEM, ND = not detectable"}, "[10]": {"system": "δOP", "conditions": "read-out: (Ki) affinity for δOP; ref Varadi et al., 2016; cited from earlier work"}, "[11]": {"system": "μOP", "conditions": "read-out: (Ki) affinity for μOP; ref Varadi et al., 2016; cited from earlier work"}, "[12]": {"biological_target": "mouse μOP (Mus musculus, UniProt P42866)", "experiment": "cAMP inhibition (GloSensor, forskolin-stimulated) in HEK 293 cells", "conditions": "for LogR (tau/Ka) cAMP: µOP, operational model"}, "[13]": {"conditions": "male wild‐type mice, 30 mg·kg^−1 i.p., vs vehicle"}, "[14]": {"conditions": "male wild‐type mice, 30 mg·kg^−1 i.p., 90 min, vs vehicle"}, "[15]": {"conditions": "male wild‐type mice, 3 mg·kg^−1 i.p., vs vehicle"}, "[16]": {"conditions": "male wild‐type mice, 10 mg·kg^−1 i.p., vs vehicle"}}, "data": [{"smiles": "CN(C(=O)Cc1ccc(Cl)c(Cl)c1)[C@@H]1CCCC[C@H]1N1CCCC1", "values": [{"measurement": "β‐arrestin 2 α (efficacy)", "setting": "[1]; normalized to U50,488, ±SEM, ND = not detectable", "result": 100, "unit": "%"}, {"measurement": "LogR (tau/Ka) β-arrestin 2", "setting": "[1]; κOP, operational model", "result": 6.947}, {"measurement": "LogR (tau/Ka) cAMP", "setting": "[2]; κOP, operational model", "result": 8.649}]}, {"smiles": "CN1CC[C@]23c4c5ccc(O)c4O[C@H]2[C@@H](O)C=C[C@H]3[C@H]1C5", "values": [{"measurement": "Conditioned place preference (time on drug‐paired side), brief CPP", "setting": "[3]; 6 mg·kg^−1, two conditioning sessions", "result": "produced significant place preference"}, {"measurement": "Conditioned place preference, extended CPP", "setting": "[4]; 6 mg·kg^−1, four conditioning sessions", "result": "place preference was established"}, {"measurement": "Antinociception (%MPE) in tail‐flick assay", "setting": "[5]; 10 mg·kg^−1, two mice, internal control, data not shown", "result": 100, "unit": "%"}]}, {"smiles": "Oc1ccc2c3c1O[C@H]1c4[nH]c5ccccc5c4C[C@@]4(O)[C@@H](C2)N(CC2CC2)CC[C@]314", "values": [{"measurement": "Effect on 7‐hydroxymitragynine‐induced inhibition of cAMP production", "setting": "[6]; HEK293 expressing δOP, pre-incubated with 100 nM naltrindole for 10 minutes", "result": "attenuated"}]}, {"smiles": "CC[C@H]1CN2CCc3c([nH]c4cccc(OC)c34)[C@@H]2C[C@@H]1/C(=C\\OC)C(=O)OC", "note": "[listing 1 of 2 here]", "values": [{"measurement": "Effect on 10% alcohol intake", "setting": "[7]; [13]", "result": "decreased alcohol intake"}]}, {"smiles": "CC[C@@H]1CN2CCc3c([nH]c4cccc(OC)c34)[C@@H]2C[C@@H]1/C(=C\\OC)C(=O)OC", "values": [{"measurement": "Effect on 10% alcohol intake", "setting": "[7]; [13]", "result": "significantly decreased"}, {"measurement": "Effect on 10% alcohol intake", "setting": "[7]; male wild‐type mice, 100 mg·kg^−1 i.p., vs vehicle", "result": "significantly decreased"}, {"measurement": "LogR (tau/Ka) cAMP", "setting": "[6]", "result": 4.393}, {"measurement": "Effect on locomotor activity", "setting": "[8]; [14]", "result": "increased locomotor activity, although only the increase induced by 7‐hydroxymitragynine was significant"}]}, {"smiles": "CC(C)C[C@H](NC(=O)[C@H](Cc1ccccc1)NC(=O)CNC(=O)CNC(=O)[C@@H](N)Cc1ccc(O)cc1)C(=O)O", "values": [{"measurement": "β‐arrestin 2 α (efficacy)", "setting": "[9]", "result": 100, "unit": "%"}, {"measurement": "LogR (tau/Ka) β-arrestin 2", "setting": "[9]; δOP, operational model", "result": 8.164}, {"measurement": "LogR (tau/Ka) cAMP", "setting": "[6]", "result": 8.028}]}, {"smiles": "CC[C@@H]1CN2CC[C@@]3(O)C(=Nc4cccc(OC)c43)[C@@H]2C[C@@H]1/C(=C\\OC)C(=O)OC", "note": "[listing 1 of 2 here]", "values": [{"measurement": "Effect on 10% alcohol intake", "setting": "[7]; female wild‐type mice, 3 mg·kg^−1 i.p.", "result": "significantly decreased alcohol intake"}, {"measurement": "Effect on 10% alcohol intake", "setting": "[7]; [15]", "result": "decrease in alcohol intake was observed"}, {"measurement": "Effect on 10% alcohol intake", "setting": "[7]; [16]", "result": "decrease in alcohol intake was observed"}, {"measurement": "Effect on 10% alcohol intake", "setting": "[7]; male δOP knockout mice, 3 mg·kg^−1 i.p., vs vehicle", "result": "did not observe changes"}, {"measurement": "Effect on 10% alcohol intake", "setting": "[7]; male δOP knockout mice, 10 mg·kg^−1 i.p., vs vehicle", "result": "did not observe changes"}, {"measurement": "β‐arrestin 2 α (efficacy)", "setting": "[9]", "result": "14 ± 1", "unit": "%"}, {"measurement": "Ki", "setting": "[10]", "result": 0.091, "unit": "µM"}, {"measurement": "Ki", "setting": "[11]", "result": 0.037, "unit": "µM"}, {"measurement": "LogR (tau/Ka) cAMP", "setting": "[6]", "result": 4.841}, {"measurement": "cAMP pIC50", "setting": "[2]", "result": "6.2 )"}]}, {"smiles": "C=CC1CN2CCc3c([nH]c4cccc(OC)c34)C2CC1C(=COC)C(=O)OC", "note": "(centres unmarked)", "values": [{"measurement": "Effect on 10% alcohol intake", "setting": "[7]; [16]", "result": "dose‐dependently decreased"}, {"measurement": "Effect on 10% alcohol intake", "setting": "[7]; [13]", "result": "dose‐dependently decreased"}, {"measurement": "LogR (tau/Ka) cAMP", "setting": "[6]", "result": 5.535}, {"measurement": "cAMP pIC50", "setting": "[6]", "result": "5.6 )"}, {"measurement": "LogR (tau/Ka) cAMP", "setting": "[12]", "result": 7.355}, {"measurement": "cAMP pIC50", "setting": "[12]; μOR section, HEK293 expressing mouse μOP, ±SEM", "result": "5.4 )"}, {"measurement": "cAMP pIC50", "setting": "[2]", "result": "5.3 )"}, {"measurement": "Effect on locomotor activity", "setting": "[8]; male wild‐type mice, 10 mg·kg^−1 i.p., 90 min, vs vehicle", "result": "did not significantly alter locomotion"}]}, {"smiles": "COc1ccsc1CNCC[C@@]1(c2ccccn2)CCOC2(CCCC2)C1", "values": [{"measurement": "Effect on 10% alcohol intake", "setting": "[7]; male wild‐type mice, 1 mg·kg^−1 i.p., vs vehicle", "result": "failed to decrease"}, {"measurement": "Effect on 10% alcohol intake", "setting": "[7]; [15]", "result": "failed to decrease"}, {"measurement": "LogR (tau/Ka) cAMP", "setting": "[6]", "result": 3.954}, {"measurement": "cAMP pIC50", "setting": "[6]", "result": "5.6 )"}, {"measurement": "LogR (tau/Ka) cAMP", "setting": "[12]", "result": 7.559}, {"measurement": "cAMP pIC50", "setting": "[2]", "result": "4.9 )"}, {"measurement": "Antinociception in tail-flick assay", "setting": "[5]; male WT C57BL/6 mice, 1, 3 and 10 mg/kg s.c., 30 minutes post injection", "result": "produced antinociception"}]}, {"smiles": "CC[C@H]1CN2CCc3c([nH]c4cccc(OC)c34)[C@@H]2C[C@@H]1/C(=C\\OC)C(=O)OC", "note": "[listing 2 of 2 here]", "values": [{"measurement": "Effect on locomotor activity", "setting": "[8]; [14]", "result": "significantly decreased locomotion"}]}, {"smiles": "CC[C@@H]1CN2CC[C@@]3(O)C(=Nc4cccc(OC)c43)[C@@H]2C[C@@H]1/C(=C\\OC)C(=O)OC", "note": "[listing 2 of 2 here]", "values": [{"measurement": "Conditioned place preference (time on drug‐paired side), brief CPP", "setting": "[3]; 3 mg·kg^−1, two conditioning sessions", "result": "did not produce statistically significant increases"}, {"measurement": "Conditioned place preference (time on drug‐paired side), brief CPP", "setting": "[3]; 10 mg·kg^−1, two conditioning sessions", "result": "did not produce statistically significant increases"}, {"measurement": "Conditioned place preference, extended CPP", "setting": "[4]; 3 mg·kg^−1, four conditioning sessions", "result": "place preference was established"}, {"measurement": "Effect on locomotor activity", "setting": "[8]; female mice, 3 mg·kg^−1 i.p.", "result": "increased locomotor activity"}, {"measurement": "Effect on locomotor activity", "setting": "[8]; male wild‐type mice, 3 mg·kg^−1 i.p., 90 min, vs vehicle", "result": "increased locomotor activity"}, {"measurement": "Effect on locomotor activity", "setting": "[8]; male δOP knockout mice, 3 mg·kg^−1 i.p., vs controls", "result": "significantly increased locomotor activity"}]}]}
